Literature values as cited in patent publication US9381164B2, “Silk nanospheres and microspheres and methods of making same” (TRUSTEES OF TUFTS COLLEGE, priority 2009, dated 2016).

Settings: Porous sponge, Drug absorbed; cited from earlier work

For “BMP-2: bone morphogenetic protein loaded in silk delivery systems”, the “In vitro drug release” value is listed as >7 days.
